Shown are actives, neighbours in structure and some others; about 0.73% of the full set was active somewhere.
Xi reactivation: activators of inactive X chromosome reactivation, primary screen, imaging, XiGFP fibroblasts, GFP high-content imaging, set 2 | XiGFP mouse fibroblasts, % GFP-positive cells imaging, 3 d; cells co-treated with 5-aza-dC sensitizer; scaled so ellipticine positive control = 100% | activation, % at 7.58 µM | actives 0.055% (n = 360,000) | AID 743238, 2013;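 active = mean normalized replicate activation at least 10% and every replicate at or above 10%; inconclusive = only one of the two criteria met; inactive = mean below 10% and not all replicates reach 10%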
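System: SV40-immortalized XiGFP fibroblast cells, line 68-5-11 / Incubation: 3-day compound exposure, then 15 min fixation at room temperature / Compound: single concentration per compound, delivered by pin transfer / Buffer or medium: DMEM plus 5-aza-dC sensitizer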
E-selectin induc: E-selectin induction in HUVECs, primary screen, imaging, HUVEC, immunofluorescence imaging, single point. normalized: neutral wells 0, TNF-alpha wells 100. activation, % at 7.58 µM. actives 0.37% (n = 260,000). AID 686992, 2013;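 active = mean E-selectin-positive cell signal at least 10% of the positive control, reached in at least 60% of replicates, without over 20% cell loss; inconclusive = no rule given, readout overlaps actives, possibly toxicity-flagged; inactive = the rest, including those meeting only one limit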
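Test system – human umbilical vein endothelial cells (HUVEC), E-selectin induction · Input – 3,000 HUVEC seeded per well · Buffer or medium – EGM-2, gelatin · Compound dosing – single-point compound dose · Detection – immunofluorescence imaging · Measure – percent E-selectin-positive cells · Controls – TNF-alpha high, DMSO low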
RAD52 inh: RAD52 DNA annealing inhibitors, primary screen, biochemical, FRET, single point, set 2 | DNA repair protein RAD52 homolog (Homo sapiens), P43351 | recombinant RAD52 DNA annealing, FRET fluorescence | inhibition, % at 18.7 µM | actives 0.46% (n = 360,000) | AID 651710, 2012;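 active = every replicate showing at least 50% inhibition; inconclusive = mean inhibition at least 50% but not in every replicate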
UUG fidelity: yeast start codon fidelity modulation | S. cerevisiae UUG-firefly luciferase reporter, luminescence/redox ratio | activity score, % at 18.7 µM | 350,000 tested, 0.13% active;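 active = replicate mean at a twofold rise or more, about +100% in these data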;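 also: firefly luciferase made from a UUG start codon reports start codon fidelity; reporter light over untreated wells divided by growth signal over untreated wells; some hits fall short of that in this replicate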
RAD54 branch: inhibitors of human RAD54 branch migration, primary screen, biochemical, fluorescence, single point; DNA repair and recombination protein RAD54-like (Homo sapiens), Q92698; RAD54 Holliday junction branch migration, FAM/BHQ fluorescence; inhibition, % at 10.4 µM; actives 0.14% (n = 360,000);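 active = mean normalized replicate activity at least 40 and at least half of replicates scoring 40 or more; inconclusive = only one of the two criteria met; inactive = mean below 40 and under half of replicates reaching 40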;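 also: inhibitors cause a drop in the FAM fluorescence signal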
DNA binder FP: DNA-binding compounds via dye displacement, dose response, artefact control for RAD52 inhibitor project, biochemical, fluorescence polarization, cherry-pick | AC50, µM | Salmon sperm DNA/acridine orange FP displacement | actives 8% (n = 1,000) | shares compounds with RAD52 inh | AID 652128, 2013;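 active = fitted half-maximal concentration for signal loss at or below twice the highest dose tested, in every separate run, actives reach about 64 µM in these data; inconclusive = runs disagree, or flat partial signal loss, or poor fit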
Hits are given with their value; - = inactive; ? = inconclusive; . = no result given.

Amino acid sequences for entries named in this document (tags omitted).
DNA repair protein RAD52 homolog (Homo sapiens), P43351, UniProt P43351, whole entry, looked up: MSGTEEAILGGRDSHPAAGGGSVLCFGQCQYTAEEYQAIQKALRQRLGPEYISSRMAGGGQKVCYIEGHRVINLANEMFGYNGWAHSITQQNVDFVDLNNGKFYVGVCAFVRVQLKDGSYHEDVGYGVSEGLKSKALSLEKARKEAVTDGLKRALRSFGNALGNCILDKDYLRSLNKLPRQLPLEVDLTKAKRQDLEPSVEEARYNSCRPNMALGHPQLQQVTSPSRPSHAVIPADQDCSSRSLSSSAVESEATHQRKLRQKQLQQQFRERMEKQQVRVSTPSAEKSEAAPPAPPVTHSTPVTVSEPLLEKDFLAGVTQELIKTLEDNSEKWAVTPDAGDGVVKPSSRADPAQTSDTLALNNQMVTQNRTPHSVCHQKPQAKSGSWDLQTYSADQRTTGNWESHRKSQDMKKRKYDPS
DNA repair and recombination protein RAD54-like (Homo sapiens), Q92698, UniProt Q92698, whole entry, looked up: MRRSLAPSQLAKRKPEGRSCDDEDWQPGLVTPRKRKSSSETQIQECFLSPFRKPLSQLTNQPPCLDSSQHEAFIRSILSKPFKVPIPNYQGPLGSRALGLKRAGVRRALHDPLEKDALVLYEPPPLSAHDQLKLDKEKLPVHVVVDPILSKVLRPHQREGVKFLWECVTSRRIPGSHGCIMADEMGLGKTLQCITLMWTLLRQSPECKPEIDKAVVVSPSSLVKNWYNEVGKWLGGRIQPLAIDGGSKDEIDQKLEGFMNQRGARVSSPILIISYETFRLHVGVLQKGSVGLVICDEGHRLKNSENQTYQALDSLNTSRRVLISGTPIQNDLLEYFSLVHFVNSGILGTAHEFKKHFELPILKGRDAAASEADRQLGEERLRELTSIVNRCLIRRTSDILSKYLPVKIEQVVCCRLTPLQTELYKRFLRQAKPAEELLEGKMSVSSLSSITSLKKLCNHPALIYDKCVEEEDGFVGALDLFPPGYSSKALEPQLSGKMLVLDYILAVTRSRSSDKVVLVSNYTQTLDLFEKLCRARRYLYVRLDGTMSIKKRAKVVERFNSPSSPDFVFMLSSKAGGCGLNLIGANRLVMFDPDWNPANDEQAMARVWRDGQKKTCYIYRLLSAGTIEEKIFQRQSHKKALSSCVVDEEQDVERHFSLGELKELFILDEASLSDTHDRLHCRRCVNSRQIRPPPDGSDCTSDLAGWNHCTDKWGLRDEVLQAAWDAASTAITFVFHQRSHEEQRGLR

SMILES | Xi reactivation | E-selectin induc | RAD52 inh | UUG fidelity | RAD54 branch | DNA binder FP
C[C@@H]1CN([C@H](C)CO)C(=O)c2cc(-c3ccccc3F)cnc2O[C@H]1CN(C)C(=O)c1ccccn1 | - | - | - | - | - | .
C[C@@H]1CN([C@H](C)CO)C(=O)CCCn2cc(nn2)CO[C@@H]1CN(C)Cc1ccc(Oc2ccccc2)cc1 | - | - | - | . | - | .
COc1cc(CNC(C)c2ccccc2)cc(Br)c1OCc1ccc(F)cc1 (stereo unspecified) | - | - | 54 | - | - | -
COc1cc(CNC(C)c2ccccc2)cc(Br)c1OCc1ccccc1 (stereo unspecified) | - | - | - | - | - | .
O=C(Nc1ccccc1)N[C@H]1CC[C@@H](CCn2cc(C3(O)CCCC3)nn2)O[C@@H]1CO | - | - | - | - | - | .
CCOc1ccc(CCN2C(=S)N([C@@H](CC(C)C)CN3CCCC3CN3C(=S)NC[C@@H]3Cc3ccc(O)cc3)C[C@@H]2Cc2ccc(O)cc2)cc1 (stereo partly specified) | - | - | 79 | - | - | -
CCOc1ccc(CCN2C(=S)N([C@@H](CC(C)C)CN3CCCC3CN3C(=S)NC[C@@H]3Cc3ccc(O)cc3)C[C@@H]2Cc2ccccc2)cc1 (stereo partly specified) | - | - | - | - | - | .
c1ccc(-c2oc3ncnc(NCCCn4ccnc4)c3c2-c2ccccc2)cc1 | . | . | - | - | - | .
CN(C)CCCNc1ncnc2oc(-c3ccccc3)c(-c3ccccc3)c12 | - | - | - | - | - | -
O=C([C@H]1[C@H](CO)[C@H]2Cn3c(cccc3=O)[C@@H]1N2Cc1ccccc1)N1CCCCC1 | - | - | - | . | - | .
COc1ccccc1C1c2ccc3ccccc3c2Oc2ncn(CCN(C)C)c(=N)c21 (stereo unspecified) | - | - | 60 | - | - | -
COc1ccc(C2c3ccc4ccccc4c3Oc3ncn(CCCN(C)C)c(=N)c32)cc1 (stereo unspecified) | - | - | 80 | - | - | -
COc1ccc(NC(=O)N2CC(=O)N3[C@H](C2)[C@H](c2ccc(C4=CCCC4)cc2)[C@@H]3CO)cc1 | - | - | - | . | . | .
NCCOc1ccccc1OCCN | - | - | 58 | - | - | -
CCc1cc(C(=O)Nc2cc(S(=O)(=O)N(CC)CC)ccc2N2CCN(C)CC2)sc1C | - | - | 89 | - | - | -
CC(C)NC(=O)N1[C@@H]2CN(C)C[C@H]1C2c1ccc(Br)cc1 (stereo partly specified) | - | . | . | . | . | .
NC(=S)NN=C1c2cc(OCCN3CCOCC3)ccc2-c2ccc(OCCN3CCOCC3)cc21 | - | - | 87 | . | . | -
CCc1nc(N=C(N)N)nc2ccccc12 | - | . | 63 | . | . | -
NC(N)=Nc1nc(-c2ccccc2)c2ccccc2n1 | - | . | 64 | - | 51 | -
CN(C)CCCn1c2c3ccccc3ccc2c2oc(=O)c3ccccc3c21 | - | - | 64 | . | . | -
Cc1ccc(-n2c(C)c3c(C)nnc(C)c3c2C)cc1N | - | - | - | - | - | .
Cc1cc(-n2c(C)c3c(C)nnc(C)c3c2C)ccc1N | - | - | 66 | . | . | -
Cc1noc(C)c1S(=O)(=O)Nc1ccc2c(c1)C(=O)N([C@H](C)CO)C[C@H](C)[C@H](CN(C)C(=O)C1CCCCC1)OCCCC[C@H](C)O2 | - | - | - | - | - | .
C=CC(=O)Nc1cccc(Oc2nc(Nc3ccc(N4CCN(C)CC4)cc3OC)ncc2Cl)c1 | - | - | 95 | . | . | -
CCCCc1cc(=O)oc2cc(OC(C)C(=O)NCCN3CCOCC3)ccc12 (stereo unspecified) | - | - | - | - | - | .
SMILES | Xi reactivation | E-selectin induc | RAD52 inh | UUG fidelity | RAD54 branch | DNA binder FP
COc1ccc2c(c1OC)c(=O)n1c3ccc(OC(C)C(=O)NCCN4CCOCC4)cc3c3ccnc2c31 (stereo unspecified) | . | . | 66 | - | 97 | ?
C[C@@H]1CCCCO[C@H](CN(C)Cc2ccc3c(c2)OCO3)[C@@H](C)CN([C@@H](C)CO)C(=O)c2cc(NC(=O)c3ccccc3)ccc2O1 | - | - | - | - | - | .
CCOC(=O)c1c(NC(=O)C[n+]2ccc(Cc3ccccc3)cc2)sc(C)c1C | - | . | 50 | . | . | -
COc1ccc2nc(C)cc(Nc3ccc(N4CCN(C)CC4)cc3)c2c1 | - | - | 100 | - | 98 | 42µM
CCCNC(=O)N1C[C@H]2[C@@H](c3ccccc31)[C@@H](CO)N2C(=O)Cc1ccccn1 | - | - | - | - | - | .
C[C@@H]1CCCCO[C@@H](CN(C)C(=O)Cc2ccccc2)[C@@H](C)CN([C@H](C)CO)C(=O)c2cc(NS(=O)(=O)c3cccs3)ccc2O1 | - | ? | - | . | . | .
C[C@@H](NC(=O)[C@H]1[C@H](CO)[C@H]2Cn3c(cccc3=O)[C@@H]1N2Cc1ccccc1)c1ccccc1 | - | - | - | - | - | .

Screening data from PubChem.
